From ChEMBL document CHEMBL2163333, “Novel imidazol-1-ylmethyl substituted 1,2,5,6-tetrahydropyrrolo[3,2,1-ij]quinolin-4-ones as potent and selective CYP11B1 inhibitors for the treatment of Cushing's syndrome” (J Med Chem, 2012)

Experiments:
Homo sapiens [1] = species: Homo sapiens; assay: Selectivity ratio of IC50 for human placental CYP19 to IC50 for human CYP11B1
Homo sapiens [2] = species: Homo sapiens; assay: Selectivity ratio of IC50 for human CYP17 to IC50 for human CYP11B1
Homo sapiens [3] = species: Homo sapiens; assay: Selectivity ratio of IC50 for human CYP11B2 to IC50 for human CYP11B1

Ratio IC50 (Homo sapiens [1]): 104
Ratio IC50 (Homo sapiens [2]): 1310
Ratio IC50 (Homo sapiens [3]): 11
SMILES: O=C1CCc2cc(C(C3CC3)n3ccnc3)cc3c2N1CC3 (racemic)
